Data taken from patent US9498467B2, “Treatment of chronic neutrophilic leukemia (CNL) and atypical chronic myeloid leukemia (aCML) by inhibitors of JAK1” (Incyte Corporation, priority 2014, dated 2016).

The chains behind the UniProt entries cited, without tags or fusion partners. Residues count along the entry.
UniProt P23458, 849-1154: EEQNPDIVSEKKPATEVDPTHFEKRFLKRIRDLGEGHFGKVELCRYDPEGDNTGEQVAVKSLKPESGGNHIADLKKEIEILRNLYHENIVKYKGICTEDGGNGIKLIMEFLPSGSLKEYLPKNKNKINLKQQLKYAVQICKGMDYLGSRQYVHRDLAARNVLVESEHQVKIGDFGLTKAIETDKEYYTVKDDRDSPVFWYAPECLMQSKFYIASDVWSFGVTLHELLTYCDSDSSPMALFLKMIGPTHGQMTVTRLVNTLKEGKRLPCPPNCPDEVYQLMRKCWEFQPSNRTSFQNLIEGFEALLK

Molecular target: T1, human JAK1 (a.a. 837-1142) (Homo sapiens, UniProt P23458)
T1 construct: human JAK1 (a.a. 837-1142); made in house; host or cells: insect cells (baculovirus)
Assay: In vitro JAK kinase assay (HTRF), JAK1
Format: biochemical
Conditions: 1 mM ATP

IC50: < 10 nM
Compound: CN(C)Cc1cc(F)cc(OC2CCN(CC(CC#N)n3cc(-c4ncnc5[nH]ccc45)cn3)CC2)c1 (single isomer, unassigned) [Compound 14, 4-(4-{3-[(dimethylamino)methyl]-5-fluorophenoxy}piperidin-1-yl)-3-[4-(7H-pyrrolo[2,3-d]pyrimidin-4-yl)-1H-pyrazol-1-yl]butanenitrile]
